The entries are a selection whose mix differs from that of the whole data set. Inconclusive results are not listed. The source made the active and inactive calls. Calls come from the whole dose curve; as a rule, active = well fitted falling curve with a large enough effect; inconclusive = small, poorly fitted or top-dose-only effect; inactive = no such curve, though single readings can be large or run the other way.
Target: ATP-dependent Clp protease proteolytic subunit (Bacillus subtilis (strain 168)) (UniProt P80244)
Assay: qHTS Assay for Activators of ClpP; note: the source files actives as falling curves though it sought activators and does not explain the sign; nearly all actives have a fitted effect of over 65% in size
Conditions: purified B. subtilis ClpP, FRET peptide cleavage, 20 min; at 57.5 µM (top of the series)

The chains behind the UniProt entries cited, without tags or fusion partners.
UniProt P80244, whole entry: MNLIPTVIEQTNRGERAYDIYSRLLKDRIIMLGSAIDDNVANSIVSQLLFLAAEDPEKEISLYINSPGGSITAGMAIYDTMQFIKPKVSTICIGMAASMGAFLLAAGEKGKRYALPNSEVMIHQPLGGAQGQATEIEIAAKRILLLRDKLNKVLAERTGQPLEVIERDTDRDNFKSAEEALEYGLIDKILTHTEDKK

Row | Compound | activity change, negative = active
1 | CCOC(=O)c1ccc(NP(C)(=O)Oc2ccc(F)cc2)cc1 (configuration not stated) | inactive: 1.01%
2 | O=[N+]([O-])c1cc([N+](=O)[O-])c2nc[nH]c2c1 | inactive: -0.404%
3 | CC(NC(=O)COC(=O)C(O)(c1ccccc1)c1ccccc1)c1ccccc1 (configuration not stated) | inactive: -0.526%
4 | Cc1ccccc1OP(=O)(Nc1ccccn1)Oc1ccccc1C | inactive: 0.231%
5 | CP(=O)(Nc1ccccc1)Oc1ccc(F)cc1 (configuration not stated) | inactive: -0.682%
6 | O=C(OC1CN2CCC1CC2)c1ccccc1 (configuration not stated) | inactive: 35.3%
7 | CCN(CC)CCCOC(=O)C(O)(c1ccccc1)C1CCCCC1 (configuration not stated) | inactive: 1.14%
8 | CCC(=O)N1C2C3N(C(=O)CC)C1C1N(C(=O)CC)C(C(N1C(=O)CC)N3C(=O)CC)N2C(=O)CC | inactive: 1.02%
9 | Cc1c([N+](=O)[O-])cc([N+](=O)[O-])c(Br)c1[N+](=O)[O-] | inactive: 1.19%
10 | COC(=O)c1cc2c(s1)N=C(c1ccccc1)N(C)P2(=O)N1CCOCC1 (configuration not stated) | inactive: -0.544%
11 | CC(=O)NC(SC(=S)N(CC(C)C)CC(C)C)C(Cl)(Cl)Cl (configuration not stated) | inactive: -18.5%
12 | CC(C)c1ccc(OP(C)(=O)Nc2ccc(SC(F)(F)F)cc2)cc1 (configuration not stated) | inactive: 2.2%
13 | CP(=O)(Nc1ccccc1F)Oc1ccccc1 (configuration not stated) | inactive: 0.0304%
14 | O=P1(Nc2nc3ccc(Cl)cc3s2)COc2ccccc2O1 (configuration not stated) | inactive: 9.52%
15 | CCOc1ccc(C2=NCC(CBr)S2)cc1 (configuration not stated) | inactive: -0.416%
16 | CC(=O)Nc1ccc(Oc2c([N+](=O)[O-])cc([N+](=O)[O-])cc2[N+](=O)[O-])cc1 | inactive: 0.233%
17 | Cc1ccccc1CN(C)C(=O)COC(=O)C(O)(c1ccccc1)c1ccccc1 | inactive: -4.3%
18 | O=C(OCCN1CCN(CCOCc2ccccc2)CC1)C(O)(c1ccccc1)c1ccccc1 | inactive: -1.51%
19 | C[C@H]1OP(=O)(Oc2ccccc2)C[C@@H]2O[C@@H]21 (some centres not stated) | inactive: -0.722%
20 | C[C@@H]1C=CCP(=O)(Oc2ccccc2)O1 (some centres not stated) | inactive: -0.308%
21 | N#C/C(=C\c1ccc(N(CCBr)CCBr)cc1)C(N)=O | inactive: 1.6%
22 | COC(=O)C1(C)COP(=O)(NCc2ccccc2)OC1 (configuration not stated) | inactive: 0.472%
23 | c1nnnn1CCn1cnnn1 | inactive: -0.315%
24 | CCOP(C)(=S)SCC(=O)NC(C)(CC)C(=O)O (configuration not stated) | inactive: 0.158%
25 | CC(C)C(=O)NC(Sc1ccccc1)C(Cl)(Cl)Cl (configuration not stated) | inactive: 0.412%

Row | Compound | activity change, negative = active
26 | CP(=O)(Nc1ccc(SC(F)(F)F)cc1)Oc1ccc(F)cc1 (configuration not stated) | inactive: 1.17%
27 | O=[N+]([O-])c1cc([N+](=O)[O-])c(C(F)(F)F)c([N+](=O)[O-])c1O | inactive: 1.19%
28 | COc1cccc([N+](=O)[O-])c1[N+](=O)[O-] | inactive: -0.0604%
29 | Cc1ccccc1NP(C)(=O)Nc1ccccc1C | inactive: 1.01%
30 | CP(=O)(Nc1ccc2c(c1)OCCO2)Oc1ccccc1 (configuration not stated) | inactive: -13.7%
31 | CN(C)CCOC(=O)C(O)(c1ccccc1)C1CCCCC1 (configuration not stated) | inactive: -0.878%
32 | C[C@H]1OP(=O)(Oc2ccccc2)[C@H](O)[C@H](O)[C@H]1N=[N+]=[N-] (some centres not stated) | inactive: 0.32%
33 | CN(C)C1(CNC(=O)c2ccc(Cl)c(S(N)(=O)=O)c2)CCCCC1 | inactive: 0.313%
34 | COc1ccc(OP(C)(=O)Nc2cccc(Br)c2)cc1 (configuration not stated) | inactive: -0.591%
35 | O=C(OC1CN2CCC1CC2)c1cccc(Cl)c1 (configuration not stated) | inactive: 0.145%
36 | Cc1c(C(c2ccc3c(c2)OCO3)c2c(C)n(C)n(-c3ccccc3)c2=O)c(=O)n(-c2ccccc2)n1C.O=[N+]([O-])c1cc([N+](=O)[O-])c(O)c([N+](=O)[O-])c1 | inactive: 1.05%
37 | C(Cc1nn[nH]n1)Cc1nn[nH]n1 | inactive: -3.08%
38 | O=[N+]([O-])c1ccc(O)c(/C=N/Nc2ccc([N+](=O)[O-])cc2[N+](=O)[O-])c1 | inactive: -2.1%
39 | CC(=O)NC(SC(=S)N(C)C)C(Cl)(Cl)Cl (configuration not stated) | inactive: -2.37%
40 | O=[N+]([O-])c1ncn(CCn2cnc([N+](=O)[O-])n2)n1 | inactive: -1.53%
41 | CP(=O)(OC12CC3CC(CC(C3)C1)C2)OC12CC3CC(CC(C3)C1)C2 | inactive: 0.862%
42 | CCOC(=O)c1ccc(NP(C)(=O)Oc2ccc(Cl)cc2)cc1 (configuration not stated) | inactive: -3.53%
43 | O=P(/N=c1/nc(-c2ccccc2)n(-c2ccccc2)s1)(Nc1ccccc1)Nc1ccccc1 | inactive: 2.82%
44 | O=C(Nc1cc([As](=O)(O)O)ccc1O)c1ccccc1 | inactive: -2.49%
45 | Cc1cc(C=O)ccc1N(CCCl)CCCl | inactive: -2.58%
46 | Nc1ccc2c(ccc3cccnc32)n1.O=[N+]([O-])c1cc([N+](=O)[O-])c(O)c([N+](=O)[O-])c1 | inactive: 4.11%
47 | O=C(O)CNc1ccc([As](=O)(O)O)cc1 | inactive: -1.77%
48 | COC(=O)C1(C)COP(=O)(Nc2ccccc2)OC1 (configuration not stated) | inactive: -0.978%
49 | O=[N+]([O-])c1cccc(NC2=NCC(CBr)S2)c1 (configuration not stated) | inactive: -0.407%
50 | O=[N+]([O-])c1ncn(CCn2ncnc2[N+](=O)[O-])n1 | inactive: 0.43%

Row | Compound | activity change, negative = active
51 | CC(C)(C)C(=O)NC(Sc1ccncn1)C(Cl)(Cl)Cl (configuration not stated) | inactive: 1.06%
52 | CP(=O)(Oc1ccccc1)N1CCOC1=O (configuration not stated) | inactive: -5.18%
53 | CCc1nc2c(n1)c1c(non1O)c1c2no[n+]1[O-] | inactive: 1.2%
54 | O=[N+]([O-])c1cccc2n[nH]nc12 | inactive: 0.492%
55 | CC(=O)N1C2C3N(C(C)=O)C1C1N(C(C)=O)C(C(N1C(C)=O)N3C(C)=O)N2C(C)=O | inactive: -2.19%
56 | COc1ccccc1OP(C)(=O)Nc1c(C)n(C)n(-c2ccccc2)c1=O (configuration not stated) | inactive: -2.02%
57 | CCN(CC)CC(O)COC(=O)C(O)(c1ccccc1)C1CCCCC1 (configuration not stated) | inactive: 0.199%
58 | COc1ccc(OP(C)(=O)Nc2ccc(Br)cc2)cc1 (configuration not stated) | inactive: 1.48%
59 | COc1ccc(C2=NCC(CBr)S2)cc1 (configuration not stated) | inactive: -0.0324%
60 | CC1CCN(C(=O)Oc2c(Cl)cc(Cl)c3cccnc23)CC1 | inactive: -9.36%
61 | c1cc(-c2nn[nH]n2)ccc1-c1nn[nH]n1 | inactive: 0.337%
62 | COc1cc([N+](=O)[O-])c([N+](=O)[O-])cc1OC | inactive: 0.289%
63 | CC(C)c1nc(Nc2ccccc2)n(P(=O)(N(C)C)N(C)C)n1 | inactive: 1.23%
64 | CN(C)C(=O)c1c([N+](=O)[O-])cc([N+](=O)[O-])cc1[N+](=O)[O-] | inactive: 0.737%
65 | CN(C)C(=O)OCCc1n(C)cc[n+]1C | inactive: 0.487%
66 | CP(=O)(Nc1ccc(Cl)cc1)Oc1ccc(F)cc1 (configuration not stated) | inactive: 1.39%
67 | COc1ccccc1OP(C)(=O)Nc1ccccc1Br (configuration not stated) | inactive: 1.98%
68 | CC(C)(C)c1ccc(OP(C)(=O)O)cc1 | inactive: -0.663%
69 | C[N+]1=C2C=CC=CC=C2SC12C([N+](=O)[O-])=CC([N+](=O)[O-])=C[C-]2[N+](=O)[O-] (configuration not stated) | inactive: 0.0795%
70 | CN1CCCC(OC(=O)C(c2ccccc2)c2ccccc2)C1 (configuration not stated) | inactive: 1.14%
71 | CN(C)CCOC(=O)C(O)(c1ccccc1)C1CCCC1 (configuration not stated) | inactive: -0.565%
72 | COc1ccc(OP(C)(=O)Nc2ccccn2)cc1 (configuration not stated) | inactive: 0.179%
73 | Cc1ccc(OP(=O)(Nc2nccs2)Oc2ccc(C)cc2)cc1 | inactive: 0.404%
74 | CN(C(=O)Cc1ccc(Cl)c(Cl)c1)[C@H]1CCCC[C@H]1N1CCCC1 | inactive: -1.21%
75 | NC(=O)c1cc([N+](=O)[O-])cc([N+](=O)[O-])c1N | inactive: 1.7%

Row | Compound | activity change, negative = active
76 | O=[N+]([O-])c1cc2c(cc1[N+](=O)[O-])OCO2 | inactive: 1.88%
77 | CCc1ccc(OP(C)(=O)O)cc1 | inactive: -12.7%
78 | O=[N+]([O-])C1C(O)C(O)C([N+](=O)[O-])C(O)C1O (configuration not stated) | inactive: 0.126%
79 | CP(=O)(Nc1ccccn1)Oc1ccccc1 (configuration not stated) | inactive: -9.77%
80 | COc1ccccc1OP(C)(=O)Nc1ccc(C)cc1C (configuration not stated) | inactive: -3.76%
81 | Oc1ccccc1CNc1ccccn1 | inactive: -17%
82 | Cc1c(NP(C)(=O)Oc2ccc(C(C)C)cc2)c(=O)n(-c2ccccc2)n1C (configuration not stated) | inactive: 0.987%
83 | Nc1cc(N)c2nonc2c1[N+](=O)[O-] | inactive: -0.229%
84 | CC(C)CC(=O)NC(Sc1ccc(Cl)cc1)C(Cl)(Cl)Cl (configuration not stated) | inactive: -0.617%
85 | COc1ccc(OP(C)(=O)Nc2ccccc2Br)cc1 (configuration not stated) | inactive: 1.09%
86 | Cc1cc(SC(NC(=O)c2ccc(F)cc2)C(Cl)(Cl)Cl)ncn1 (configuration not stated) | inactive: -2.59%
87 | CCOP(=O)(Nc1ccccc1)OCC | inactive: 0.806%
88 | COc1ccccc1OP(C)(=O)Nc1ccc(C)c(C)c1 (configuration not stated) | inactive: -0.18%
89 | CN(C(=O)Cc1ccc(Cl)c(Cl)c1)[C@H]1CCCC[C@@H]1N1CCCC1 | inactive: -1.07%
90 | CN(C)P(=O)(N(C)C)n1c(Nc2ccccc2)nnc1-c1ccccc1 | inactive: 1.54%
91 | Nc1cccc2ccc([As](=O)(O)O)cc12 | inactive: 4.7%
92 | CCCCCCCCCCCCCCCC1C[N+](C)(C)CCOP(C)(=O)O1 (configuration not stated) | inactive: -5.73%
93 | CP(=O)(OCCOc1ccccc1)OCCOc1ccccc1 | inactive: -5.11%
94 | CCN(N=Nc1nonc1N)c1nonc1N | inactive: 1.42%
95 | Nc1c(O)cc([N+](=O)[O-])cc1[N+](=O)[O-] | inactive: 0.305%
96 | [N-]=[N+]=NC1CCCCC1NC(=O)c1cc([N+](=O)[O-])cc([N+](=O)[O-])c1 (configuration not stated) | inactive: -12.8%
97 | Cc1ccc(OP(=O)(Nc2ccc([N+](=O)[O-])cn2)Oc2ccc(C)cc2)cc1 | inactive: 1.15%

Source: PubChem BioAssay AID651965 (National Center for Advancing Translational Sciences (NCATS), 2013)
